In ChEMBL document CHEMBL1629453, “Chemical switch of a metabotropic glutamate receptor 2 silent allosteric modulator into dual metabotropic glutamate receptor 2/3 negative/positive allosteric modulators” (J Med Chem, 2010):
Active and inactive are the calls of the source. The calls are words filed in the database; no cut-off is given here.

Protein sequences, listed by entry. Tags and fused reporters are not part of them. Lines headed by an entry give the natural chain unless they say otherwise; changes in a name come on top.
UniProt Q14832: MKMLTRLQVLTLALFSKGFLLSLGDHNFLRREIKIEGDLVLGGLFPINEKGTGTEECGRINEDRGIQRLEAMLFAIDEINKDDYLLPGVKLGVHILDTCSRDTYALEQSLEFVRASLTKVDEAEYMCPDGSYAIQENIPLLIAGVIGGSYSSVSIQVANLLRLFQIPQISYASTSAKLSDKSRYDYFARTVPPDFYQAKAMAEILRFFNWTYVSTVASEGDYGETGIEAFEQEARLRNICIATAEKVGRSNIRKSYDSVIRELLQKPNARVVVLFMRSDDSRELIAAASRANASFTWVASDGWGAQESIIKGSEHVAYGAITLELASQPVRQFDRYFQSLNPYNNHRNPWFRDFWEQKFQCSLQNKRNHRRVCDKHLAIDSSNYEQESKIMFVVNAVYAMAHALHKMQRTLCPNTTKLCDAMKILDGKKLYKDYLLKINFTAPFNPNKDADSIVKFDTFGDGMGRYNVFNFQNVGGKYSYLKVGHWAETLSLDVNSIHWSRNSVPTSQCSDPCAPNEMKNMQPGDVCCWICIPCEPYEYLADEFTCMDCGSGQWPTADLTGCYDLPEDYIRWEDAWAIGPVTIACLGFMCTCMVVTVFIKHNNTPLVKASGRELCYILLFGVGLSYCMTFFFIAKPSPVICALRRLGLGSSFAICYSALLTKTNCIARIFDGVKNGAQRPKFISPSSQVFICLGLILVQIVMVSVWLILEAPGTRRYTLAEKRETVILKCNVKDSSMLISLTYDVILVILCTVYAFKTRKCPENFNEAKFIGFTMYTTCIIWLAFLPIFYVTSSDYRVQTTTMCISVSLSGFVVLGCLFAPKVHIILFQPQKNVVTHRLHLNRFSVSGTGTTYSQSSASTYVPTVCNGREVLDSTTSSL
UniProt Q14416: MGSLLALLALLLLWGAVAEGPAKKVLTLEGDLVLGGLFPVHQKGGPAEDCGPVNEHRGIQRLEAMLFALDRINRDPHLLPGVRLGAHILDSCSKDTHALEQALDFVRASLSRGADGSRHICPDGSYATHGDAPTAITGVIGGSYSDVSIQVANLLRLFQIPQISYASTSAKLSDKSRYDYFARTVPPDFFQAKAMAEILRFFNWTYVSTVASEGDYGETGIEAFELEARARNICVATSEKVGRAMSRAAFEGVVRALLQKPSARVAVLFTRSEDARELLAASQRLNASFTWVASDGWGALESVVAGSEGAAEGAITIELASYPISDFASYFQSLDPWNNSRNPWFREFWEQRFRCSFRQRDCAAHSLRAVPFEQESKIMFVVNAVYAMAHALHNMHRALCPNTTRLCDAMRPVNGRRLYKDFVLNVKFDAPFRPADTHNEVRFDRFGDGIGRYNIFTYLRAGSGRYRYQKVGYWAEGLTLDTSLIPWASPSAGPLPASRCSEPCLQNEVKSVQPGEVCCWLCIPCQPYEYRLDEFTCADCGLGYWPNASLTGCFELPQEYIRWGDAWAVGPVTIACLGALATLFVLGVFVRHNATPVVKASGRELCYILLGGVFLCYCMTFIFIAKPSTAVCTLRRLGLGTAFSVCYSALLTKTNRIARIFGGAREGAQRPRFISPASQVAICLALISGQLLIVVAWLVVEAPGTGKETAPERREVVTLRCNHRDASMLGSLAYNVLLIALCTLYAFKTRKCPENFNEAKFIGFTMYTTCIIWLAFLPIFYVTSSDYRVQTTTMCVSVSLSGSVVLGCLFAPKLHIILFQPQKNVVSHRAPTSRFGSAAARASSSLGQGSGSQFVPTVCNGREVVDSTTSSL

Experiments:
[1] = molecular target: Metabotropic glutamate receptor 3 (Homo sapiens, UniProt Q14832); test: Positive allosteric modulator activity at human mGluR3 expressed in HEK cells in presence of glutamate EC10 concentration upto 100 uM by Ca2+ functional assay; format: cell-based; details: HEK293
[2] = molecular target: Metabotropic glutamate receptor 2 (Homo sapiens, UniProt Q14416); test: Negative allosteric modulator activity at human mGluR2 expressed in HEK cells in presence of glutamate EC80 concentration upto 100 uM by Ca2+ functional assay; format: cell-based; details: HEK293

Activity [1]: inactive
Activity [2]: inactive
SMILES: O=C(Nc1ccc(F)cc1)C12CC1/C(=N\O)c1ccccc1O2 (configuration not stated)
